Experimental findings from patent US10874644B2, “Therapeutic approaches for treating Alzheimer disease and related disorders through a modulation of synapse function” (Pharnext, priority 2008, dated 2020) are described below.

Test [1] has as its system rat primary cortical neurons. Kind of test: Neurite outgrowth (neurites length) in beta-amyloid Aβ25-35 intoxicated rat primary cortical neuron culture. Format: cell-based. The note with it: Aβ25-35 20 μM for 2 days, drug added 1 hour before, Fig. 1A, 1B. The source says:
Viable cells are counted in a Neubauer cytometer using the trypan blue exclusion test.

The test system of test [2] is rat primary cortical neurons. Nature of the test: LDH release in human Aβ1-42 toxicity on rat primary cortical cells. In kind it is cell-based. The note with it: 1 h pre-treatment, Aβ1-42 10 μM for 24 h; Fig. 3B, 3C. The procedure: Primary rat cortical neurons are cultured as described previously. […] The control medium was prepared in the same conditions.
Cortical neurons were intoxicated for 24 hours. Three separate cultures were performed per condition, 6 wells per condition.
This colorimetric assay for the quantification of cell toxicity is based on the measurement of lactate dehydrogenase (LDH) activity released from the cytosol of dying cells into the supernatant.

On to `[H]/N=C(/N)N/C(=N/[H])NCCc1ccccc1` [Phenformin], for which the “Prevention of Aβ25-35 intoxication (neurite outgrowth, neurites length)” value in test [1] was “significantly prevented”. Further, in test [2], the “Prevention of Aβ1-42 intoxication, change of LDH release” value is on record as −56%.
